Test results reported in patent publication US20050038015A1, “Partial dopamine-D 2 receptor agonist plus serotonin and/oder noradrenaline inhibitor activity” (priority 2002, published 2005).

The chains behind the UniProt entries cited, without tags or fusion partners.
UniProt P31652, whole entry: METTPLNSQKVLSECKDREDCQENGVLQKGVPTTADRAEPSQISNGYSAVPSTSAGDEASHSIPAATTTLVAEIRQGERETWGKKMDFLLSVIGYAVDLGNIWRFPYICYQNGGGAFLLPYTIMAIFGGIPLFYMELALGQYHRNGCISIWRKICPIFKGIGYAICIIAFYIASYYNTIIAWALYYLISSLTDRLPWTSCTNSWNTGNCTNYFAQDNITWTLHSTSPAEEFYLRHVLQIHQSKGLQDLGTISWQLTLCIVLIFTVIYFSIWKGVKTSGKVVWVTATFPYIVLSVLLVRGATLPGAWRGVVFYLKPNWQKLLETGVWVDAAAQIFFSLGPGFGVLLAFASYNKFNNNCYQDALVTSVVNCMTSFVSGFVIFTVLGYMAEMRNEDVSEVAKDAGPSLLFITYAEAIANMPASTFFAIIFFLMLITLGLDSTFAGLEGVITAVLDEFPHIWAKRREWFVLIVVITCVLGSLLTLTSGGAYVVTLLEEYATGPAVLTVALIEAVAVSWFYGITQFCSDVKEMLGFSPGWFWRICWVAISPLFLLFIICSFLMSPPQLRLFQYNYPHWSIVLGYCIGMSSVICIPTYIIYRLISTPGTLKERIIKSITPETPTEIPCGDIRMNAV
UniProt P14416, whole entry: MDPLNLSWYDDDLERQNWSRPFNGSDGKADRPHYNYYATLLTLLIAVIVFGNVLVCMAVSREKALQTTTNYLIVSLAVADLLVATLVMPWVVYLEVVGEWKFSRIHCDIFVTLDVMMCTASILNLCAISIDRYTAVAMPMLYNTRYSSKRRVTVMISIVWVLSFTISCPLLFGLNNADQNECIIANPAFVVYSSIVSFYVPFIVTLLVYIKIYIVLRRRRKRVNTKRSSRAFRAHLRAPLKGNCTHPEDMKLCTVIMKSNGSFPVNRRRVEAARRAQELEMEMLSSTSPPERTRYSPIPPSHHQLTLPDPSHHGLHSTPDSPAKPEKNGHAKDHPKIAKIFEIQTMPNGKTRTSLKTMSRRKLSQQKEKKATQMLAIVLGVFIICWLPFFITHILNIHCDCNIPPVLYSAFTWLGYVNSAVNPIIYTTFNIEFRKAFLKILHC

Columns and labels:
serotonin reuptake sites = biological target: T1, serotonin reuptake sites (Rattus norvegicus, UniProt P31652); experiment: In vitro functional inhibition of [3H]-serotonin reuptake in rat brain synaptosomes; assay type: biochemical
T1 construct: the cerebral hemispheres were rapidly removed and a P2-synaptosomal fraction was prepared; from tissue; host or cells: rat (Wistar) cerebral hemispheres, P2-synaptosomal fraction

[1] = biological target: human dopamine D2,L receptors (Homo sapiens, UniProt P14416); experiment: cell-based
[2] = biological target: noradrenaline reuptake sites (Rattus norvegicus, UniProt Q9WTR4); experiment: In vitro functional inhibition of [3H]-noradrenalin reuptake in rat hypothalamus synaptosomes

Row | EC50 [1] | Structure (SMILES) | IC50 (serotonin reuptake sites) | NA uptake pIC50 [2]
1 | – | Fc1ccc([C@@H]2CCNC[C@H]2COc2ccc3c(c2)OCO3)cc1 | 39.8 nM | –
2 | 398 nM | CCCN1CCC[C@@H](c2cccc(O)c2)C1 [preclamol] | – | –
3 | – | CCCN1CCC[C@@H]2Cc3n[nH]cc3C[C@H]21 [quinpirole] | > 10000 nM | <5.0
